Results: patent US6432662B1, “Assay of peroxidase activity” (Pierce Chemical Company, priority 1999, dated 2002)

Target: T1, Biotinylated horseradish peroxidase (B-HRP) (Armoracia rusticana, UniProt P00433)
T1 sequence (P00433 31-338): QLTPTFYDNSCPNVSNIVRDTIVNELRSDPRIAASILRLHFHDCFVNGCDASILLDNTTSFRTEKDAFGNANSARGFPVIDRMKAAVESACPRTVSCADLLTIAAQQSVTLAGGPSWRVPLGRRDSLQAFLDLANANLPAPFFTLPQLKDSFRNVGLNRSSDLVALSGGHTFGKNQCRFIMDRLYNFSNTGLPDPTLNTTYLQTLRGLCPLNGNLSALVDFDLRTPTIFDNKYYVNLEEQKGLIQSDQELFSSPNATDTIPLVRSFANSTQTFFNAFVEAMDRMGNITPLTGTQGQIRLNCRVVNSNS
Experiment: Microtiter plate luminometer assay of peroxidase activity (RLU)
Details: after 5 minutes, enhancer: 1c […] (present invention) or 52 μM (low), 1b 52 μM, 3 13.5 μM

Relative Intensity 5 pg SA-HRP: 0 | Relative Intensity 25 pg SA-HRP: 0 | Relative Intensity 250 pg B-HRP: 0.328
Substance: Phenylindophenol/indophenol [Phenolic Enhancer 3]
